ChEMBL document CHEMBL1155439, “Transient receptor potential ankyrin 1 (TRPA1) channel as emerging target for novel analgesics and anti-inflammatory agents” (J Med Chem, 2010)

Amino acid sequences for entries named in this document (tags omitted).
UniProt O75762, whole entry: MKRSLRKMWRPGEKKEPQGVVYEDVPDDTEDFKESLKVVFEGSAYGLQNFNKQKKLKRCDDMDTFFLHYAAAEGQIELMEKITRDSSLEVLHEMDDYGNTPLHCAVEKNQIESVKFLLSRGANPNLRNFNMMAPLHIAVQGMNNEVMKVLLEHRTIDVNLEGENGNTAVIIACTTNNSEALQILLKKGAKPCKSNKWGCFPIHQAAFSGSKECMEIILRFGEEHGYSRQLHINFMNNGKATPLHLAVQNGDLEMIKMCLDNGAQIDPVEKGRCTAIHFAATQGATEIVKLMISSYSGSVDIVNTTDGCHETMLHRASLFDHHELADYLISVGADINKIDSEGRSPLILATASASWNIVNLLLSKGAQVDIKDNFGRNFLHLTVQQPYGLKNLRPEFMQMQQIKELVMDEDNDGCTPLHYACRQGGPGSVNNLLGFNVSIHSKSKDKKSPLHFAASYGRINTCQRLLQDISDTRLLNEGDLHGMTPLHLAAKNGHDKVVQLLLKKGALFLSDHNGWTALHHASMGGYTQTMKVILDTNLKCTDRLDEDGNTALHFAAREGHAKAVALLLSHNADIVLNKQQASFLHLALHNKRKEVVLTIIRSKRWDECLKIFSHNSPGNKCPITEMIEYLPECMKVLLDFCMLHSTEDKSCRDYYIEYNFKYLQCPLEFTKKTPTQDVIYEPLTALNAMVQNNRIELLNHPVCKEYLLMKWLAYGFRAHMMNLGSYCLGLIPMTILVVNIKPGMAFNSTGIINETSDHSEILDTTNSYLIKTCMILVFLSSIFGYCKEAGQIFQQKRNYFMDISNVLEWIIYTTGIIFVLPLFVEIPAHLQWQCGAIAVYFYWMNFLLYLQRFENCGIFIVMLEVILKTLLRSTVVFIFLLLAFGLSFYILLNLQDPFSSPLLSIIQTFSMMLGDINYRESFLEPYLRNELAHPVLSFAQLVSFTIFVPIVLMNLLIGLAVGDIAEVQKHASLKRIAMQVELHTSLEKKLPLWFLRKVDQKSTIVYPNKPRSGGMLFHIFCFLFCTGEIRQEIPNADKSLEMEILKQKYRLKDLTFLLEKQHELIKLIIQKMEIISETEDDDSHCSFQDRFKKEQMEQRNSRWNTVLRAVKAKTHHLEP

Target: Transient receptor potential cation channel subfamily A member 1 (Homo sapiens, UniProt O75762)
Assay: Antagonist activity at human TRPA1 channel assessed as inhibition of noxious cold-induced receptor activation

## O=C(NC(Sc1ccc(Cl)cc1)C(Cl)(Cl)Cl)c1ccccc1 (stereo unspecified)
  IC50: 7 nM
